Laboratory results taken from patent publication US8084647B2, “Two-photon probe for real-time monitoring of intracellular calcium ions, method for preparing the probe and method for real-time monitoring of intracellular calcium ions using the probe” (Korea University Industry and Academy Cooperation Foundation, priority 2007, dated 2011).

Assays:
[1] = One-photon absorption and emission spectra, fluorescence quantum yield; type: physicochemical; conditions: MOPS buffer pH 7.2, presence of 39 μM free Ca2+
Experimental: The absorption spectra of the compound of Formula 7 were recorded on a Hewlett-Packard 8453 diode array spectrophotometer, and the fluorescence spectra of the compound were obtained with Amico-Bowman series 2 luminescence spectrometer with a 1 cm standard quartz cell. The fluorescence quantum yield of the compound was determined by using Coumarin 307 as the reference by the literature method (J. N. Demas, G. A. Crosby, J. Phys. Chem. 1971, 75, 991-1024.).

[2] = Two-photon action spectra / two-photon cross section; type: physicochemical; conditions: presence of 39 μM free Ca2+
From the text: The TP action spectra of the Ca^2+ complexes with the compound of Formula 4 and OG1 in buffer solutions indicated a value of 110 GM at 780 nm for Φδ for the compound of Formula 4-Ca^2+, 5-fold larger than that of OG1-Ca^2+. Thus, TPM images for samples stained with the compound of Formula 4 would be much brighter than those stained with commercial probe. In addition, the two-photon fluorescence enhancement factor (TFEF) estimated from the two-photon titration curve was 44 (Table 2), a value that allowed detection of Ca^2+ by TPM.
The two-photon cross section (δ) was determined by using femto second (fs) fluorescence measurement technique (S. K. Lee, W. J. Yang, J. J. Choi, C. H. Kim, S.-J, Jeon, B. R. Cho, Org. Lett. 2005, 7, 323-326).

Which results are given for “Oregon Green 488 BAPTA-1 [OG1, reference compound]”?
λmax^(l) one-photon absorption [1]: 494 nm; λmax^fl one-photon emission [1]: 523 nm; Φ fluorescence quantum yield ([1]; ±10%): 0.66; Φδ two-photon action cross section [2]: 24 GM; λmax^(2) of the two-photon excitation spectra [2]: 800 nm; δ peak two-photon cross section ([2]; ±15%): 37 GM
